Assay: Aqueous solubility (leaching) of Co, OECD-105 flask method
Format: physicochemical
Experimental: Experiments are performed to determine the aqueous solubility of the Co in the invented polymers. These tests are relevant as indicators for the bioavailability of Co.
[…] The leaching tests are conducted according to the OECD-105 standard flask method, as described in the OECD Guideline for the Testing of Chemicals, adopted on 27 Jul. 1995, and in the Official Journal of the European Communities L 383 A, 54-62 (1992).
The solubility of 3 typical polymers according to the invention is compared to that of 3 commercial products.

For Co-boro-neo-decanoate, which “Solubility of Co in 0.9% NaCl solution, Co” value (solvent: 0.9% NaCl) is on record?
The value was 1080 µg/mL.

What about the “Solubility of Co in water, Co” value (solvent: water) of the same substance?
Its value is 990 µg/mL.
